Source: patent publication US11718635B2, “Iron bis(imino) aryl catalysts and methods thereof” (ExxonMobil Chemical Patents Inc., priority 2019, dated 2023)

Test: Solubility tests in anhydrous hexane (stirred 30 minutes at room temperature, filtered, solvent removed)
Assay type: physicochemical
Details: result in words, relative to the Comparative Catalyst
Description: Into a vial was placed 0.097 g of 2,6-bis-[1-(2-chloro-4,6-dimethylphenylimino)ethyl]pyridine iron-silylneopentyl with 2.007 g of anhydrous hexane. This solution was stirred for 30 minutes at room temperature. The contents were then filtered through a buchner filter funnel with a frit having a 4-5.5 micron size. The solvent was then removed en vacuo.
Comparitive: Into a vial was placed 0.077 g 2,6-bis-[1-(2-chloro-4,6-dimethylphenylimino)ethyl]pyridine iron dichloride with 2.008 g of anhydrous hexane (Sigma Aldrich). This solution was stirred for 30 minutes at room temperature. The contents were then filtered through a buchner filter funnel with a frit having a 4-5.5 micron size. The solvent was then removed en vacuo.

Substance: 2,6-bis-[1-(2-chloro-4,6-dimethylphenylimino)ethyl]pyridine iron-silylneopentyl [Catalyst 2]
- solubility in hydrophobic (nonpolar) solvents compared to the Comparative Catalyst: significantly improved solubility
